Test results from patent US4179337A, “Non-immunogenic polypeptides” (priority 1977, dated 1979).

Experiment: Enzymatic activity of PEG-catalase (method of Beers and Sizer)
Format: biochemical
Description: Catalase--assayed by the method of Beers and Sizer (J. Biol. Chem., 195, 133 (1952)).

Substance: Hydrogen-peroxide: hydrogen-peroxide oxidoreductase [Unmodified catalase]
- catalase enzymatic activity: 41,500 units/mg. protein
